From patent US4880941A, “Trittum labelled compound, its preparation and its use in the determination of the affinity of retinoids for their cellular receptor” (priority 1986, dated 1989)

The chains behind the UniProt entries cited, without tags or fusion partners.
UniProt P62966, whole entry: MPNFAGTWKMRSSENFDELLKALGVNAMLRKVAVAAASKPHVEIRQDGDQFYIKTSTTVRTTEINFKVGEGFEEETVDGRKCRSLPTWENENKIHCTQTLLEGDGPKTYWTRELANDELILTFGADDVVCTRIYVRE

Columns and labels:
[1] = target: T1, cRABP (cellular Retinoic Acid-Binding Protein) (Rattus norvegicus, UniProt P62966); experiment: Saturation test: fixation of ligand on soluble cRABP of rat testicle homogenate; set-up: a homogenate of rat testicles (organ rich in cRABP); from tissue; host or cells: rat testicles (homogenate), inferred from the saturation test; settings: 2 hours incubation, nonlinear regression (Clark equation), read-out: Kd (dissociation constant at equilibrium)
Description: The fixation of the compound of the present invention with cRABP has been characterized by saturation tests. The total fixation (nonspecific +specific) (curva a), is obtained by incubation of increasing concentrations (up to a maximum of 50 nM) of the compound of the present invention with a constant quantity (0.3 ml) of a homogenate of rat testicles (organ rich in cRABP). The nonspecific fixation of the tritiated compound is determined in parallel, by the measurement of the fixation with increasing concentrations of the radioactive ligand in the presence of a large excess (1 μM) of retinoic acid (curve c). An incubation time for 2 hours is necessary for the establishment of equilibrium conditions.
Once equilibrium is reached, the cRABP-tritiated ligand complex is separated from the nonlinked ligand by filtration on an exclusion gel Sephadex G25 column (Bio-Rad econo columns, 0.5×20 cm): the complex is eluted (elution peak at 2.5 ml), while the nonlinked ligand is retained in total on the column. A total separation is thus effected between the linked and nonlinked product. The eluation is made directly in the scintillation tubes and the radioactivity is measured by counting.
The results thus obtained are analyzed by nonlinear regression using as a model the Clark equation: (A. J. Clark, The Mode of Action of Drugs on Cells; A. Arnold and Co., London, 1933). […]

[2] = target: T1, cRABP (cellular Retinoic Acid-Binding Protein); experiment: Competition test of cold ligand against radioactive ligand for fixation on cRABP; settings: Kd of the cold ligand, calculated from IC50 of competition curve

SMILES: CC1=C(/C=C/C(C)=C/C=C/C(C)=C/C(=O)O)C(C)(C)CCC1 [retinoic acid]
- Kd [1]: 2 ± 0.8 nM
- Kd ([2]; radioactive ligand: compound of Example 1): 4 nM
- Kd ([2]; radioactive ligand: tritiated retinoic acid): 4 nM
